Reference: ChEMBL document CHEMBL6153139, “Discovery of Novel Isoxazole-Based Small-Molecule Toll-Like Receptor 8 Antagonists” (J Med Chem, 2025)

Amino acid sequences for entries named in this document (tags omitted). A change or cut given only in a name is not applied to a line headed by its entry.
UniProt O60603: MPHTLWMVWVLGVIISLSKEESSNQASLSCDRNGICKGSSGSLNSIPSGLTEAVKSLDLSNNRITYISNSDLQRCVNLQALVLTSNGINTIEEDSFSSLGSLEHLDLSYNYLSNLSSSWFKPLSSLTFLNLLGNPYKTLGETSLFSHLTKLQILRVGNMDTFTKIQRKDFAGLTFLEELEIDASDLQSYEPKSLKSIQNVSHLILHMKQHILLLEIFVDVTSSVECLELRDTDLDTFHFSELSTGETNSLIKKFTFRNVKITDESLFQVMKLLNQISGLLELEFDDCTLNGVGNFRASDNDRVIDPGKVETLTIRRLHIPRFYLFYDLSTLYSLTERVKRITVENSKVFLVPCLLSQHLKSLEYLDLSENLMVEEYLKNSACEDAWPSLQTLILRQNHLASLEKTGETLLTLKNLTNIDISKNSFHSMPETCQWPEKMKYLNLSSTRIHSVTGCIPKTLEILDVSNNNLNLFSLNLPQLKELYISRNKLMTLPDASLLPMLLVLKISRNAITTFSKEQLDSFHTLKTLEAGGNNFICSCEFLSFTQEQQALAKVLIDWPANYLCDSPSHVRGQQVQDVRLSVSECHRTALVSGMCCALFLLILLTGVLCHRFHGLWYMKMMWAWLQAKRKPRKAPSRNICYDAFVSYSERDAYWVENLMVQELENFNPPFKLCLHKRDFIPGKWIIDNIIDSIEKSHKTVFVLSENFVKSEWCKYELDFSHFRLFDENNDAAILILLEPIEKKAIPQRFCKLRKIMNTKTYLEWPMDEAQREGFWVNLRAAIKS
UniProt Q15399: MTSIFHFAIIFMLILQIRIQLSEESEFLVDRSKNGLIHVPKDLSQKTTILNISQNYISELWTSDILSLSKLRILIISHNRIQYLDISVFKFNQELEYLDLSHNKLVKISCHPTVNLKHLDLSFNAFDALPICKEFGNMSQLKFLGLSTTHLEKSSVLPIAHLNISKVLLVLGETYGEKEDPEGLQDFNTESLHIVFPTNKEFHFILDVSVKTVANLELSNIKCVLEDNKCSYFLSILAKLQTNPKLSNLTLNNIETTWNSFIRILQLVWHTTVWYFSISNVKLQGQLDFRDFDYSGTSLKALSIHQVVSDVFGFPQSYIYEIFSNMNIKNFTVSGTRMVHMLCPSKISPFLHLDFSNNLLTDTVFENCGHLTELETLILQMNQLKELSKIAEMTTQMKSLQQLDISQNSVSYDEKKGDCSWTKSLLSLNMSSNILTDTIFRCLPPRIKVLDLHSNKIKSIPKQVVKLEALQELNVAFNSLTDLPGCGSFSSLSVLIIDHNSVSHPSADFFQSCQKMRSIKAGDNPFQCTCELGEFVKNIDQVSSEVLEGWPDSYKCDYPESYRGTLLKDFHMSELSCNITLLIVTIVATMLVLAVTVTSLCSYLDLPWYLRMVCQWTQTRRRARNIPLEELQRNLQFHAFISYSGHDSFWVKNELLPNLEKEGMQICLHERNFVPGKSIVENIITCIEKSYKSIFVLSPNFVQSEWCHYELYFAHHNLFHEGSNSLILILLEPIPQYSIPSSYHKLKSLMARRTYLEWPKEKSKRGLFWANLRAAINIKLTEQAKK
UniProt Q9Y2C9: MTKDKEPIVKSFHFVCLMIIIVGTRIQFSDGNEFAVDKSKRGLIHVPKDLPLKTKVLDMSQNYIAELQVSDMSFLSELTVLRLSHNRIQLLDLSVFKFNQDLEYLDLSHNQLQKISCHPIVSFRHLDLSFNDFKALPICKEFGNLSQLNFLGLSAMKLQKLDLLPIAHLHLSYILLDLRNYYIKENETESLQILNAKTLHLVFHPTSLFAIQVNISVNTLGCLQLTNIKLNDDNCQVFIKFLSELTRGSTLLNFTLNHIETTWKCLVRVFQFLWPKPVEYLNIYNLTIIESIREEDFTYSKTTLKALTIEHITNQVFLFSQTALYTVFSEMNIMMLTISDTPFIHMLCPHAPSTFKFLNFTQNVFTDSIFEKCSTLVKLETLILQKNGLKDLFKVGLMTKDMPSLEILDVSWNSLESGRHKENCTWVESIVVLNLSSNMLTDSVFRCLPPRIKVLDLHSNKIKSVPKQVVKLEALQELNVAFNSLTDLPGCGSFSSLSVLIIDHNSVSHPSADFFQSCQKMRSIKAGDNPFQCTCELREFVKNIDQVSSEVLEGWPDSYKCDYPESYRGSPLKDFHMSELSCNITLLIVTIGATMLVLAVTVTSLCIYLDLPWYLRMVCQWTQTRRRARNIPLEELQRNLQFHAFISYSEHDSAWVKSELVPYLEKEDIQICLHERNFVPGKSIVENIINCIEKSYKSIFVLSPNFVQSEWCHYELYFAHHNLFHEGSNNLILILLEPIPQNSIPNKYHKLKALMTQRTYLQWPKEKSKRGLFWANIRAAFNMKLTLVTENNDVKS
UniProt O60602, whole entry: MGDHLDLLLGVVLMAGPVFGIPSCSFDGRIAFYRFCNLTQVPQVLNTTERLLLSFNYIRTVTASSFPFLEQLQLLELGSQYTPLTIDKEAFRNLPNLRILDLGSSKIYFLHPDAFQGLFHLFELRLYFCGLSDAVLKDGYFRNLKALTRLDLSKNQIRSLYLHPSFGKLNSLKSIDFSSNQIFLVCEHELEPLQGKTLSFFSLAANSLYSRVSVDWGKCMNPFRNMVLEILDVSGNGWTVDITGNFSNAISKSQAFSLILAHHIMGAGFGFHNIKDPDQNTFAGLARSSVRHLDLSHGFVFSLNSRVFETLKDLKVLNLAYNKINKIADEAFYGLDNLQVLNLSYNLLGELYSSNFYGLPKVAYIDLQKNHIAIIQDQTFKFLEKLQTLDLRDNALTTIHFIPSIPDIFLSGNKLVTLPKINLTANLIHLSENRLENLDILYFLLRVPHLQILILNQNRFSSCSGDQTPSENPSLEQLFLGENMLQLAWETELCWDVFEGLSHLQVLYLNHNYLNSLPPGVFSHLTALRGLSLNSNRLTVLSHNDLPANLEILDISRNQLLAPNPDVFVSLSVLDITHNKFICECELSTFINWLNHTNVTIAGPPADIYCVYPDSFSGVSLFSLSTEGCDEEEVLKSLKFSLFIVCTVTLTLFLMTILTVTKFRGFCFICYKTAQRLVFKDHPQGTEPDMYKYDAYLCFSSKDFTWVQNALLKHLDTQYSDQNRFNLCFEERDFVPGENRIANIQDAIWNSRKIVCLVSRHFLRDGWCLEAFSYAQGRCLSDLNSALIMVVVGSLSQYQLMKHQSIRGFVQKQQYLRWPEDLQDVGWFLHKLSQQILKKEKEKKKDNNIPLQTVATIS
UniProt Q04206, whole entry: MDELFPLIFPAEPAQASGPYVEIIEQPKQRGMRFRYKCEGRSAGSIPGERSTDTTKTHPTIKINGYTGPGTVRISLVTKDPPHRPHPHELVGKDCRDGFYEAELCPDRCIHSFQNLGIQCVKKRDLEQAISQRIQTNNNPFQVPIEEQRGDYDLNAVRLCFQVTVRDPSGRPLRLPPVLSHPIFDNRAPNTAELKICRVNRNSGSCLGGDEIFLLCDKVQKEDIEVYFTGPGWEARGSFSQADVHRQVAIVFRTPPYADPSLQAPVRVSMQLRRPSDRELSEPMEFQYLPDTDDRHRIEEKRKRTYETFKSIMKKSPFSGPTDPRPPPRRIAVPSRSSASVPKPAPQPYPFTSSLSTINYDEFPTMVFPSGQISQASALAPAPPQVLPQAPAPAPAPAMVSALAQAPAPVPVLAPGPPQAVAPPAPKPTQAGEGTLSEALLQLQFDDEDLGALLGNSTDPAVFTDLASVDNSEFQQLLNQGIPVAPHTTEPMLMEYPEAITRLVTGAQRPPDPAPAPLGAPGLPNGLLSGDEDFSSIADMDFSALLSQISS

How the values were obtained:
Format in all cases: cell-based
[1] = biological target: Toll-like receptor 1/2 (Homo sapiens) (UniProt O60603+Q15399); test: Antagonist activity at TLR2/1 in HEK-Blue hTLR2-TLR1 cells assessed as inhibition of Pam3CSK4 induced NF-kappaB activation at 10 uM preincubated with compound for 1 hrs followed by Pam3CSK4 addition and measured after 24 hrs by Quanti-blue reagent based SEAP reporter assay
TLR2/TLR6 (Homo sapiens) = TLR2/TLR6 (Homo sapiens) (UniProt O60603+Q9Y2C9); test: Antagonist activity at TLR2/6 in HEK-Blue hTLR2-TLR6 cells assessed as inhibition of Pam2CSK4 induced NF-kappaB activation at 10 uM preincubated with compound for 1 hrs followed by Pam2CSK4 addition and measured after 24 hrs by Quanti-blue reagent based SEAP reporter assay
[2] = biological target: T1, Toll-like receptor 3 (Homo sapiens) (UniProt O15455); test: (§1) Antagonist activity at TLR3 in HEK-Blue hTLR3 cells assessed as inhibition of poly(I:C) induced NF-kappaB activation at 10 uM preincubated with compound for 1 hrs followed by poly(I:C) addition and measured after 24 hrs by Quanti-blue reagent based SEAP reporter assay relative to control
T1 sequence (whole entry): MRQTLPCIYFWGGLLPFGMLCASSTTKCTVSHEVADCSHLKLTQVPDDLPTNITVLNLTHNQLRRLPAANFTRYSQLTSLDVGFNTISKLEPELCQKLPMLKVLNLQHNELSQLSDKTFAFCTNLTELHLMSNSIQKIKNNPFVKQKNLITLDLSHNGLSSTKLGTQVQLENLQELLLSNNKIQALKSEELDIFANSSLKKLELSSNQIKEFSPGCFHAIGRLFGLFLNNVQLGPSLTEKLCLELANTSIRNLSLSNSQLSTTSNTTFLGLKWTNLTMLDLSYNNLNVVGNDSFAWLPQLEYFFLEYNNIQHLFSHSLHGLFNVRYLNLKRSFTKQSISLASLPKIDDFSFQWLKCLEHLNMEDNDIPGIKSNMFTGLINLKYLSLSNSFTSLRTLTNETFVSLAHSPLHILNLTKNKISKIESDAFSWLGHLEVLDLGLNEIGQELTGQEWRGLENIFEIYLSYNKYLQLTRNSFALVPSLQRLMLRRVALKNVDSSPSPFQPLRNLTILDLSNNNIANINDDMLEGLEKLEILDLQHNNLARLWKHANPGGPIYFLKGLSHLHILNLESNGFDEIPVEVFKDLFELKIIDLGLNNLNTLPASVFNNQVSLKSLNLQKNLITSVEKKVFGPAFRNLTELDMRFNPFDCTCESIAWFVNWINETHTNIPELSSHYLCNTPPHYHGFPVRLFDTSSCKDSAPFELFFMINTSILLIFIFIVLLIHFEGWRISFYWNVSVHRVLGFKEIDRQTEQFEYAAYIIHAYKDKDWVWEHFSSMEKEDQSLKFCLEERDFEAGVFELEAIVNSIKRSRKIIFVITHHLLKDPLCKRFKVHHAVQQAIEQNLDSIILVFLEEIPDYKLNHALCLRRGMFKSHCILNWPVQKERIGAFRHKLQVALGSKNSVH

[3] = biological target: Toll-like receptor 5 (Homo sapiens) (UniProt O60602); test: as §1, with “TLR5” for “TLR3”, “hTLR5” for “hTLR3”, “Bacillus subtilis flagellin-induced” for “poly(I:C) induced”, “flagellin” for “poly(I:C)”
[4] = biological target: T2, Toll-like receptor 9 (Homo sapiens) (UniProt Q9NR96); test: Antagonist activity at TLR9 in HEK-Blue hTLR9 cells assessed as inhibition of ODN2006-induced NF-kappaB activation at 10 uM preincubated with compound for 1 hrs followed by ODN2006 addition and measured after 24 hrs by Quanti-blue reagent based SEAP reporter assay relative to control
T2 sequence (whole entry): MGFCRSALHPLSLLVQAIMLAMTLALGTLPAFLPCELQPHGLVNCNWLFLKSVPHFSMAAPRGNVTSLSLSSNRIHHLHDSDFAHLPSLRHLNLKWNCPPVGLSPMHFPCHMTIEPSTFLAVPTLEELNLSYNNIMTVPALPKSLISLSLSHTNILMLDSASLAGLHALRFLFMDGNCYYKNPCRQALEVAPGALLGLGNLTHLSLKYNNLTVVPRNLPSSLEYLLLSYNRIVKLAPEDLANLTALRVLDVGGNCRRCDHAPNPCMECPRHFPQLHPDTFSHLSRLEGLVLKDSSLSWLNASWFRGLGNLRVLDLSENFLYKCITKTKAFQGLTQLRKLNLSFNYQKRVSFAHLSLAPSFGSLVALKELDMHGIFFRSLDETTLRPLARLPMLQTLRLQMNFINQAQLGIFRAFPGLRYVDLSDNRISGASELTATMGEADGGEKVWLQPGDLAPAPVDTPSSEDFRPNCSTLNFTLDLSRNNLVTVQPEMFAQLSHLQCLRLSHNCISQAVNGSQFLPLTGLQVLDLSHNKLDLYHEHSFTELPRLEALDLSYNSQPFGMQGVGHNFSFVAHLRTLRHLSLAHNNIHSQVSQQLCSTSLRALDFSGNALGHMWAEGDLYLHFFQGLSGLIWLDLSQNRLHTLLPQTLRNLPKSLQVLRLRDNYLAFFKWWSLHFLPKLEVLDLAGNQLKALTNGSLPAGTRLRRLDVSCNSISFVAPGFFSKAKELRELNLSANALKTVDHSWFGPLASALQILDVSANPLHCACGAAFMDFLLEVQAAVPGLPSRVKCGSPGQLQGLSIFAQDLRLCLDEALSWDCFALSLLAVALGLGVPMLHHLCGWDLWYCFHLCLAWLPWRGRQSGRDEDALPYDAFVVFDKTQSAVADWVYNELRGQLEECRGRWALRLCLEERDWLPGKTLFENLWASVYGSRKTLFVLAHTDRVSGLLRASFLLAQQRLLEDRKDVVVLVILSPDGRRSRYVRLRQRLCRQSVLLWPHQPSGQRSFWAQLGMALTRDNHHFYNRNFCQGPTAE

[5] = biological target: Transcription factor p65 (Homo sapiens) (UniProt Q04206); test: Inhibition of NF-kappaB p65 phosphorylation in TL8-506 induced human THP-1 cells at 10 uM preincubated with compound for 1 hrs followed by TL8-506 addition and measured after 15 mins by Western blot analysis

## CCN1CCC(NC(=O)c2ccc(OCc3c(C)noc3C)c(OC)c2)CC1
[1]
  Activity: inactive
TLR2/TLR6 (Homo sapiens)
  Activity: inactive
[2]
  Activity: inactive
[3]
  Activity: inactive
[4]
  Activity: inactive
[5]
  inhibition: Active

Active and inactive are the calls of the source. No cut-off for these calls is given here.
